# Laboratory results from US8268635B2, “Methods of identifying agents that selectively activate p38 and/or NKkB signaling” (priority 2006, dated 2012).
# How the values were obtained:
# [1] = system: JNK; experiment: JNK activity in adherent neutrophils; assay type: cell-based, human
# Procedure: ERK activation was determined by assessing the level of ERK1/ERK2 dual phosphorylation (a) or by kinase activity assay (b) after immunoprecipitation. JNK activity was assayed as described under Experimental using GST-jun (1-79) as the substrate (c). (a) Immunoblot probed with anti-ACTIVE ERK antibody (top panel), stripped, and re-probed with anti-ERK2 antibody (bottom panel). (b) The data is presented as the means+−sem of 3 experiments. […] Significance of difference between control and stimulated cells: *p<0.05. […]
# KHS (hereon referred to as “GCKR”) activity was assayed as described previously using myelin basic protein as a substrate (Shi, C. S., Leonardi, A., Kyriakis, J., Siebenlist, U., and Kerhl, J. H. (1999) J. Immunol. 163: 3279-3285). ASK-1 activation was determined in immunoprecipitates of ASK-1 by autophosphorylation (Kyriakis, J. M., and Auruch, J. (2001) Physiol. Rev. 81: 807-869). p38 and ERK activities were determined as described using myelin basic protein as a substrate (Hii, C. S., Huang, Z. H., Bilney, A., Costabile, M., Murray, A. W., Rathjen, D. A., Der, C. J., and Ferrante, A. (1998) J. Biol. Chem. 273: 19277-19282). […]
# [2] = system: NFκB; experiment: NFκB pathway activation in human neutrophils (nuclear translocation of NFκB); assay type: cell-based; conditions: data not shown
# Procedure: After cell lysis, nuclear fractions were prepared, nuclear proteins separated by SDS page (12% gel), transferred to nitrocellulose and probed with an anti NFκB p65 antibody (Santa Cruz). Results represent one experimental run representative of results obtained in two other experiments.
# Western blot analysis was conducted as described previously (Hii, C. S., Huang, Z. H., Bilney, A., Costabile, M., Murray, A. W., Rathjen, D. A., Der, C. J., and Ferrante, A. (1998) J. Biol. Chem. 273: 19277-19282). Briefly, equal amounts of denatured protein from each lysate were separated by 12% SDS polyacrylamide gel electrophoresis (PAGE). The proteins were electrophoretically transferred to nitrocellulose membranes (Schleicher and Schuell, Keene, N. H., USA)(3 h at 40V). The amounts of dually phosphorylated ERK1 and ERK2, phospho-JNK and NFκB p65 subunit were detected using rabbit anti-active ERK, mouse anti-phospho JNK and rabbit anti-NFκB antibody, respectively. […]
# This pathway, akin to the p38 pathway, is dependent on TRAF-2 and RIP (Kyriakis, J. M., and Auruch, J. (2001) Physiol Rev. 81: 807-869). We measured the nuclear translocation of NFκB as an indicator of the activation of this pathway.
# [3] = system: ASK-1; experiment: ASK-1 autophosphorylation in neutrophils; assay type: cell-based, human
# Procedure: GCKR was immunoprecipitated from cell lysates and activity assayed using myelin basic protein (MBP) as the substrate. […] Results shown are the means+−sem of 3 experiments; (c) Expression of ASK-1 in HEK293T cells and neutrophils as determined by Western blot analysis of cell lysates. […] Activation of ASK-1 was determined by kinase autophosphorylation. A representative digital radiogram from 3 experiments is shown.
# KHS (hereon referred to as “GCKR”) activity was assayed as described previously using myelin basic protein as a substrate (Shi, C. S., Leonardi, A., Kyriakis, J., Siebenlist, U., and Kerhl, J. H. (1999) J. Immunol. 163: 3279-3285). ASK-1 activation was determined in immunoprecipitates of ASK-1 by autophosphorylation (Kyriakis, J. M., and Auruch, J. (2001) Physiol. Rev. 81: 807-869). p38 and ERK activities were determined as described using myelin basic protein as a substrate (Hii, C. S., Huang, Z. H., Bilney, A., Costabile, M., Murray, A. W., Rathjen, D. A., Der, C. J., and Ferrante, A. (1998) J. Biol. Chem. 273: 19277-19282). […] Phosphorylated ASK-1, myelin basic protein and GST-jun (1-79) were fractionated on 8, 16 and 12% SDS polyacrylamide gels, respectively, and the bands were detected and radioactivity determined using an Instant Imager (Packard Instruments, Canberra, Australia). […]
substance,measurement,setting,value
"TNF: Human recombinant TNF produced by Genentech, Inc.",activity of JNK in adherent neutrophils,"[1]; neutrophils pre-adhered to plasma-coated dishes, 15 min, TNF 1000 U/ml, TNF70-80 10 μM",stimulated the activity of JNK
same,JNK activity in neutrophils pre-adhered to non-coated surfaces,"[1]; non-coated surfaces, data not shown",failed to stimulate the activity of either GCKR or JNK
same,degradation of IκB,[2],caused the degradation of IκB
same,ASK-1 phosphorylation in non-adherent neutrophils,[3]; data not shown,not altered
same,ASK-1 phosphorylation in adherent neutrophils,"[3]; plasma-coated dishes, 3 or 7 min",neither TNF nor TNF70-80 increased the level of ASK-1 phosphorylation
